Results: patent US12622906B2, “Treatment and prognosis of pancreatic cancer” (Cambridge Enterprise Limited, priority 2019, dated 2026)

How the values were obtained:
IGF1 signalling pathway [1] = system: IGF1 signalling pathway
CCR1 expression = CCR1 expression in PDAC cells after prolonged co-culture with BMDM (qRT-PCR, flow cytometry); type: cell-based, murine
PDAC tumours = assay: Initial pilot experiments in KPC Band B mice, tumour staining; type: in vivo; conditions: 10 days, compared with vehicle control
PDAC mesenchymal cells = conditions: mouse, in vivo
IGF1 signalling pathway [2] = system: IGF1 signalling pathway; remark: listed apart in the source

## C[C@@H]1CN(Cc2ccc(F)cc2)CCN1C(=O)COc1ccc(Cl)cc1NC(N)=O [BX-471, (2R)-1-[[2-[(Aminocarbonyl)amino]-4-chlorophenoxy]acetyl]-4-[(4-fluorophenyl)methyl]-2-methylpiperazine]
IGF1 signalling pathway [1]
  upregulation of IGF1 family genes with recombinant IGF1: severely blunted this upregulation
CCR1 expression
  induction of CCR1 expression due to prolonged co-culture: blunting the induction of CCR1 expression
PDAC tumours
  collagen deposition / tumour microenvironment morphology (collagen VI stain): altered morphology of the PDAC tumour microenvironment
PDAC mesenchymal cells
  overall survival: prolonged overall survival
IGF1 signalling pathway [2]
  activation and expression profiles of AKT and 4E-BP1 following recombinant IGF1 treatment: particularly blunted
